Measurements as given in patent US6358936B2, “Compounds for the treatment of cancer” (Ardenia Investments, Ltd., priority 1998, dated 2002).

Legend:
EAC cells = test: Antitumor effect of compound 1 and doxorubicin on EAC in C3H mice (Example 20); format: in vivo; details: dose 50 μg/mouse i.v. (doxorubicin equivalent, 2.5 mg/kg), days 2, 4, 6, day 9, listed as free doxorubicin
Procedure: A study of the anti-tumour effect of compound 1 as compared with doxorubicin was carried out in EAC, passed in C3H mice. 20-22 g males of C3H mice were used. Control and experimental groups included 7 animals, which were inoculated 5×10^6 EAC cells i.p. in volume 0.2 ml at day 0. On second, fourth and sixth days following inoculation the doses of 20, 50 and 100 μg/mouse of compound 1, equivalent ones of doxorubicin, in 200 μl of normal mice serum (NMS) were injected i.v. Three groups of animals were administrated water solutions of doxorubicin in doses^—of 1, 2.5 and 5 μg/kg of body weight (20, 50 and 100 μg/mouse by weight of 20 g accordingly). One group of mice was untreated control. Results of experiment were accounted on ninth day. Mice were killed by cervical dislocation. Ascitic fluids were removed, collected, their volumes were measured, and abdominal cavities were washed by saline solution 6-7 times. Thus obtained fluids were pooled. The number of viable tumor cells was counted by hemocytometer, using trypan blue exclusion test. The mean and the standard mean error was calculated for each group of mice. Comparison of tumor cell number in control and experimental groups was carried out using Student t-test. Influence of tested preparation on EAC growth inhibition was evaluated by: [formula]

EAC = details: doxorubicin dose 2.5 mg/kg i.v. in NMS, days 2, 4, 6; day 9

## COc1cccc2c1C(=O)c1c(O)c3c(c(O)c1C2=O)C[C@@](O)(C(=O)CO)C[C@@H]3O[C@H]1C[C@H](N)[C@H](O)[C@H](C)O1 [DXR, doxorubicin, reference compound]
EAC cells
  EAC growth inhibition, % to control: 45%
EAC
  EAC growth inhibition: 44.9%
